The target of this test is T1, mouse PDGFR (PDGFR beta) (Mus musculus, UniProt P05622).
T1 construct: made in house
Nature of the test: Murine PDGFR FRET Biochemical Assay. The note with it: 1 nM mouse PDGFR, 20 μM ATP, TR-FRET; read-out: IC50 in biochemical assay (inhibition of PDGFR). The source says:
Murine PDGFR FRET Biochemical Assay
Reaction is initiated upon addition of enzyme.

The chains behind the UniProt entries cited, without tags or fusion partners. Residues count along the entry.
UniProt P05622, 32-1098: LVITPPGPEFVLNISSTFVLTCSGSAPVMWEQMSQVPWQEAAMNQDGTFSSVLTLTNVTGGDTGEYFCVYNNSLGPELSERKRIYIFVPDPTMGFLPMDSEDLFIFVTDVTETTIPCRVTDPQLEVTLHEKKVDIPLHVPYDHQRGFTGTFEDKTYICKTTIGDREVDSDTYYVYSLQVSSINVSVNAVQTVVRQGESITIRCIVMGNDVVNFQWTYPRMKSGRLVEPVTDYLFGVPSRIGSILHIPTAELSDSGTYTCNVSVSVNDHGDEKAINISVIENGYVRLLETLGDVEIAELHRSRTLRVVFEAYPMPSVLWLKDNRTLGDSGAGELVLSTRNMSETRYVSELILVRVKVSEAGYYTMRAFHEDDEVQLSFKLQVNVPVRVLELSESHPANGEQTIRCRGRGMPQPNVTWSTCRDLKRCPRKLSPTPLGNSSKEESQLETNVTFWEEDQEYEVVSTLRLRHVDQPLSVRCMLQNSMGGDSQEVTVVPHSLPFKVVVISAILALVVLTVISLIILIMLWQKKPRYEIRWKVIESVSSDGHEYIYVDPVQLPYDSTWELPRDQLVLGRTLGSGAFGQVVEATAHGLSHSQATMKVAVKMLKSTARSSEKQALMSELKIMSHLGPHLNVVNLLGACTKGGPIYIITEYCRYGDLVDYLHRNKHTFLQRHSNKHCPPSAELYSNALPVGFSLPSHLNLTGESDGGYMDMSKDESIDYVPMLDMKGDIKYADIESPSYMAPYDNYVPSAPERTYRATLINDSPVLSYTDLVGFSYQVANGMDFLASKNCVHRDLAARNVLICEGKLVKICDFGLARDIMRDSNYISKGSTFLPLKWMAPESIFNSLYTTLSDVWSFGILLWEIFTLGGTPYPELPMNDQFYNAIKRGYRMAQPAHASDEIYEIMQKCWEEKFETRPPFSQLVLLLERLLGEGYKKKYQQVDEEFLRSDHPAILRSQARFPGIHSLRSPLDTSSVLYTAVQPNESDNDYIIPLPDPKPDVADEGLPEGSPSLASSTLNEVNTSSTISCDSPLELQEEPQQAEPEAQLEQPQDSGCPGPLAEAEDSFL

Broadly, the IC50 is the concentration that inhibits the measured activity by half.

Consider `CNC(=O)c1cc(Oc2ccc(NC(=O)Nc3ccc(Cl)c(C(F)(F)F)c3)c(F)c2)ccn1` [N-(4-chloro-3-(trifluoromethyl)phenyl)-N′-(4-(2-(N-methylcarbamoyl)-4-pyridyloxy)-2-fluorophenyl) urea], for which the IC50 is less than 10 µM.

The values are drawn from patent US8796250B2, “Diaryl ureas for diseases mediated by PDGFR” (Bayer Healthcare LLC, priority 2003, dated 2014).
